This data set addresses GST-Rac1 preloaded with GTPγS, P63000.

The values below come from patent publication US20020086390.

B1: inactive PAK I holoenzyme (p60) purified from rabbit reticulocytes (protein)
chain: SDNGELEDKPPAPPVRMSSTIFSTGGKDPLSANHSLKPLPSVPEEKKPRNKIISIFSGTEKGSKKKEKERPEISPPSDFEHTIHVGFDAVTGEFTGMPEQWARLLQTSNITKLEQKKNPQAVLDVLKFYDSNTVKQKYLSFTPPEKDGFPSGAPALNTKVSETSAVVTEEDDDDEEAAPPVIAPRPDHTKSIYTRSVIDPIPAPVGDSHVDSGAKSSDKQKKKTKMTDEEIMEKLRTIVSIGDPKKKYTRYEKIGQGASGTVFTATDVALGQEVAIKQINLQKQPKKELIINEILVMKELKNPNIVNFLDSYLVGDELFVVMEYLAGGSLTDVVTETCMDEAQIAAVCRECLQALEFLHANQVIHRDIKSDNVLLGMEGSVKLTDFGFCAQITPEQSKRSTMVGTPYWMAPEVVTRKAYGPKVDIWSLGIMAIEMVEGEPPYLNENPLRALYLIATNGTPELQNPEKLSPIFRDFLNRCLEMDVEKRGSAKELLQHPFLKLAKPLSSLTPLIMAAKEAMKSNR
Regarding B1, the “activity (phosphorylation of H4)” value amounted to 1515 pmol/min/mg and the autophosphorylation was 0.09 mol/mol.
